Source: PubChem
Shown are actives, neighbours in structure and some others; about 0.34% of the full set was active somewhere.
Yeast UUG start-1 = alters start codon recognition fidelity in yeast; AID 602363; activity score, % at 18.7 µM; 350,000 tested, 0.13% active; S. cerevisiae UUG-firefly luciferase reporter, luminescence/redox ratio;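 active means replicate mean at a twofold rise or more, about +100% in these data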;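 further: firefly luciferase made from a UUG start codon reports start codon fidelity; reporter light over untreated wells divided by growth signal over untreated wells; some hits fall short of that in this replicate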
PDI turbidity = blocks human protein disulfide isomerase activity; inhibition, % at 10 µM; hit rate 0.052% among 350,000; PDI insulin aggregation turbidity, A650, 90 min; P07237;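 active means mean inhibition across replicates of 30% or more, whatever share of single replicates reach that level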
ERp5 inh = blocks human ERp5 reductase activity on insulin | Q15084 | ERp5 insulin aggregation, absorbance 650 nm, 90 min | inhibition, % at 9.99 µM | hit rate 0.05% among 350,000;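 active means mean replicate inhibition above about 25%, with every replicate also reaching it, limit read from the data, passing the limit was not always enough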
Cneo AK release = causes C. neoformans cell lysis; adenylate kinase release luminescence, 4 h; normalised: neutral wells 0, clomiphene wells 100; lysis activity, % at 15 µM; hit rate 0.2% among 360,000; AID 651654;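 active means mean lysis activity across replicates of at least 80%, whatever share of replicates individually reach that level; inactive means mean lysis activity below 80%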
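Test system: log-phase Cryptococcus neoformans yeast cells; Quantity: yeast cell density of 5 × 10^6 cells/mL; Buffer or medium: YPD; Doses: single compound concentration per well; Timing: 4 h at 37 °C static, read 1 h later; Measured by: AK luminescence; Read-out basis: lysis from increased AK signal; Control set: Clomiphene as positive control.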
Yeast UUG start-2 = yeast start codon fidelity modulation; S. cerevisiae UUG-start firefly luciferase, luminescence, 4 h; 100% means double the DMSO signal; shares compounds with Yeast UUG start-1; AID 652061; 540 tested, under 10 active; activation, % at 38 µM;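 active means signal increase whose fitted curve reaches an absolute level of 40 at a concentration under 10 µM; inactive means activity opposite to the expected increase, or the rest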
Hits are given with their value; – = inactive; · = no result.

SMILES	Yeast UUG start-1	PDI turbidity	ERp5 inh	Cneo AK release	Yeast UUG start-2
O=C(NCc1ccccn1)c1c(-c2ccccc2)sc2ccccc12	62	–	–	–	–
COC(=O)c1cn(NC(=O)Cc2ccc(OC)c(OC)c2)c(=O)c2ccccc12	479	–	–	–	–
O=C(C[C@H]1C=C[C@@H](NC(=O)Nc2cc(F)ccc2F)[C@@H](CO)O1)NCCCN1CCOCC1	–	·	–	–	·
Cc1cccc(NC(=O)CSc2nnc([C@H](C)NC(=O)OC(C)(C)C)o2)c1C	–	–	–	–	·
Cc1ccc(NC(=O)CSc2nnc([C@H](C)NC(=O)OC(C)(C)C)o2)c(C)c1	214	–	–	–	–
COc1ccc(CN2CCN(C(=O)c3cccc4ccccc34)CC2)c(OC)c1OC	146	–	–	–	–
O=C(c1cccnc1)N1C[C@@H]2[C@H](c3ccccc31)[C@H](CO)N2C(=O)C1CCCCC1	–	·	–	–	·
O=C(c1ccccc1F)N1C[C@H]2[C@@H](c3ccccc31)[C@H](CO)N2C(=O)C1CCCC1	–	·	–	–	·
O=C(Cc1ccccc1)N1C[C@H]2[C@@H](c3ccccc31)[C@@H](CO)N2C(=O)c1ccc(F)cc1	109	·	–	–	–
O=C(c1cccnc1)N1C[C@@H]2[C@H](c3ccccc31)[C@H](CO)N2C(=O)C1CCCC1	103	·	–	–	–
O=C(c1ccccc1F)N1C[C@@H]2[C@H](c3ccccc31)[C@@H](CO)N2C(=O)C1CCCC1	active	·	–	–	–
O=C(Nc1ccccc1F)N[C@@H]1CC[C@H](CCNC(=O)C2CCOCC2)O[C@@H]1CO	–	·	–	–	·
CCOCC(=O)N1CCN(c2ccc(F)cc2)CC1	–	–	·	–	·
CC(=O)N1CCN(c2ccc([N+](=O)[O-])cc2)CC1	·	–	–	·	–
CCOCC(=O)N1CCN(c2ccc([N+](=O)[O-])cc2)CC1	–	–	·	–	–
CC(=O)OCC(=O)N1CCN(c2ccc([N+](=O)[O-])cc2)CC1	·	–	–	·	–
Cc1noc(C)c1NC(=O)N(C)C[C@H]1Oc2ccc(NS(=O)(=O)c3ccccc3)cc2CC(=O)N([C@@H](C)CO)C[C@H]1C	–	·	–	–	·
CO[C@H]1CN(C)C(=O)c2cc(NC(=O)C3CCC3)ccc2OC[C@@H](C)N(C(=O)NC(C)C)C[C@@H]1C	–	·	–	–	·
COc1ccc2oc(C(=O)N(C)Cc3ccc4c(c3)OCCO4)c(C)c2c1	–	–	–	–	·
COc1ccc2oc(C(=O)OCC(=O)c3ccc4c(c3)OCCO4)c(C)c2c1	668	–	·	–	–
O=C(c1ccc(COc2ccc(Cl)cc2)cc1)N1CCCCC1	410	–	–	–	–
CCCCOc1ccc(C(=O)N2CCCCCC2)cc1	–	–	·	–	·
CCCNC(=O)C[C@H]1CC[C@H]2[C@@H](COc3ccc(NC(=O)NCCC)cc3C(=O)N2C)O1	·	·	–	·	·
Cc1cc(Nc2ccc(Cl)cc2)nc(NCc2ccccc2)n1	active	–	·	·	–
COc1cc(C2CC(=O)C=C(O)C2)cc(OC)c1OC (stereo unspecified)	516	–	·	–	–
SMILES	Yeast UUG start-1	PDI turbidity	ERp5 inh	Cneo AK release	Yeast UUG start-2
COc1ccc(C2CC(=O)C=C(O)C2)cc1 (stereo unspecified)	·	–	–	·	·
C[C@@H]1CN([C@@H](C)CO)C(=O)Cc2cc(NS(=O)(=O)c3cn(C)cn3)ccc2O[C@@H]1CN(C)Cc1ccc(-c2ccccc2)cc1	·	·	–	·	·
C[C@H](CO)N1C[C@H](C)[C@@H](CN(C)C)Oc2ccc(NS(=O)(=O)c3ccc(F)cc3)cc2C1=O	–	·	–	–	·
Cc1sc2nc(CN3CCOCC3)nc(N3CCC(C(N)=O)CC3)c2c1C	286	–	·	–	–
O=C(O)C[C@H]1C[C@H]2c3cc(NS(=O)(=O)c4ccc(F)cc4)ccc3O[C@H]2[C@H](CO)O1	·	·	–	·	·
COCC(=O)N1[C@@H](CO)[C@@H](c2ccc(-c3cccc(OC)c3)cc2)C12CN(C(C)=O)C2	·	·	–	·	·
COc1ccc(/C=N/NC(=O)c2ccc3nc[nH]c3c2)c(OC)c1OC	346	–	–	–	–
COc1cc(OC)c(OC)cc1/C=N/NC(=O)c1ccc2nc[nH]c2c1	·	–	–	·	·
COc1ccc(Cl)cc1NC(=O)CSc1nc2[nH]ncc2c(=O)[nH]1	109	–	–	–	–
COc1cc2c(C#N)c(N3CCc4ccccc4C3)nc(N)c2c(N)n1	502	–	·	–	–
C[C@H]1CN([C@@H](C)CO)S(=O)(=O)c2ccc(-c3cncnc3)cc2O[C@@H]1CN(C)C(=O)C1CCCCC1	254	·	–	–	–
CCCC#Cc1ccc2c(c1)O[C@@H](CN(C)C(=O)CN(C)C)[C@H](C)CN([C@@H](C)CO)S2(=O)=O	–	·	–	–	·
CCCC#Cc1ccc2c(c1)O[C@@H](CN(C)C(=O)CN(C)C)[C@H](C)CN([C@H](C)CO)S2(=O)=O	150	·	–	–	–
C[C@H](CO)N1C[C@H](C)[C@H](CN(C)C(=O)C2CCCCC2)Oc2cc(-c3cncnc3)ccc2S1(=O)=O	–	·	–	–	·
Cc1ccc(-c2ccc3c(c2)O[C@@H](CN(C)Cc2cncnc2)[C@@H](C)CN([C@H](C)CO)S3(=O)=O)cc1	135	·	–	–	–
C[C@H]1CN([C@@H](C)CO)S(=O)(=O)c2ccc(C#Cc3ccncc3)cc2O[C@@H]1CN(C)S(=O)(=O)c1ccccc1	126	·	–	–	–
O=C(NCC(F)(F)F)[C@@H]1[C@@H](CO)[C@@H]2Cn3c(cccc3=O)[C@@H]2N1C(=O)c1ccccc1F	·	·	–	–	·
C[C@H]1CN([C@@H](C)CO)C(=O)c2cc(-c3ccc(F)cc3)cnc2O[C@@H]1CN(C)Cc1cncnc1	–	·	–	–	·
CCCC#Cc1ccc2c(c1)O[C@H](CN(C)Cc1cncnc1)[C@@H](C)CN([C@@H](C)CO)S2(=O)=O	80	·	–	–	–
C/C=C/c1ccc2c(c1)O[C@H](CN(C)CCC)[C@H](C)CN([C@H](C)CO)S2(=O)=O	75	·	–	–	–
CC(C)C#Cc1ccc2c(c1)O[C@@H](CN(C)C(=O)CC1CC1)[C@H](C)CN([C@H](C)CO)S2(=O)=O	70	·	–	–	–
CCCC#Cc1ccc2c(c1)O[C@@H](CN(C)C)[C@@H](C)CN([C@H](C)CO)S2(=O)=O	128	·	–	–	–
C/C=C/c1ccc2c(c1)O[C@@H](CN(C)CCC)[C@@H](C)CN([C@@H](C)CO)S2(=O)=O	–	·	–	–	·
C[C@H](CO)N1C[C@H](C)[C@H](CN(C)S(=O)(=O)c2cccc(F)c2)Oc2ncc(-c3cccc(F)c3)cc2C1=O	–	·	–	–	·
COc1ccccc1NC(=O)N(C)C[C@H]1Oc2cc(Br)ccc2S(=O)(=O)N([C@@H](C)CO)C[C@@H]1C	162	·	–	–	–
C[C@H](CO)N1C[C@H](C)[C@H](CN(C)Cc2ccccn2)Oc2cc(-c3cncnc3)ccc2S1(=O)=O	124	·	–	–	–
CNC[C@H]1Oc2cc(C#Cc3ccccc3F)ccc2S(=O)(=O)N([C@H](C)CO)C[C@@H]1C	137	·	–	–	–
C[C@H]1CN([C@@H](C)CO)S(=O)(=O)c2ccc(-c3cncnc3)cc2O[C@@H]1CN(C)Cc1ccccn1	–	·	–	–	·
